# US8530520B2, “Cycloalkyl-dione derivatives and methods of their use” (The Trustees Of The University Of Pennsylvania, priority 2011, dated 2013)
# Where two headings read alike, the source gives them in different places.
# Legend:
# mouse TP receptor = target: T1, mouse TP receptor (Mus musculus, UniProt P30987); assay: IP-One (IP1 HTRF) functional assay, TP receptor antagonist activity
# T1 sequence (P30987 1-341): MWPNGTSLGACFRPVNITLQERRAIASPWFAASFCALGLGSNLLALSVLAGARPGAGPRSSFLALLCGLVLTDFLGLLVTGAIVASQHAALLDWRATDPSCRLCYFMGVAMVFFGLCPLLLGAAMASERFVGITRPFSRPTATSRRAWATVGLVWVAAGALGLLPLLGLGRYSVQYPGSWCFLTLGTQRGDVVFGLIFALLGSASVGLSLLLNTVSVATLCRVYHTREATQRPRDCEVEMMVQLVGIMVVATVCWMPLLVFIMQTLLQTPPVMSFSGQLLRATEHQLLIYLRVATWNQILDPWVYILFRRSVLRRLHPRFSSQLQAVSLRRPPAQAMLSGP
# human TP receptor = target: T2, human TP receptor (Homo sapiens, UniProt P21731); assay: as above; format: cell-based; design: expressed in transfected cells; conditions: QBI-HEK 293A cells stably transfected with human TP receptor; agonist I-BOP 1.6 nM; IP1 by HTRF; read-out: TP Receptor Antagonist Activity IPOne Assay Human TP
# T2 sequence (P21731 1-343): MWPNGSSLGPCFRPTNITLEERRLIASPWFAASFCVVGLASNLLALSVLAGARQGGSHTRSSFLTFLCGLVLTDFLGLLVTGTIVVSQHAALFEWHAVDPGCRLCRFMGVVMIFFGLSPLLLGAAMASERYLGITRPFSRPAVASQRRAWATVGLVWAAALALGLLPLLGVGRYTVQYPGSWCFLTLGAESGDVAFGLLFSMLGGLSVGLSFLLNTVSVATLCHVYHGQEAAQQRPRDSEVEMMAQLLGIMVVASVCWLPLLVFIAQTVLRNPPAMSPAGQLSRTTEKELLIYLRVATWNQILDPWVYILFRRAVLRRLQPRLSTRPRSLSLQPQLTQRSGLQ
# [1] = read-out: TP Receptor Antagonist Activity IPOne Assay Mouse TP, QBI-HEK 293A cells stably transfected with mouse TP receptor, agonist I-BOP 1.6 nM, IP1 by HTRF
Compound,IC50 (mouse TP receptor; [1]) [µM],IC50 (human TP receptor) [µM],IC50 (mouse TP receptor) [µM]
"O=C(O)CCc1cccc(CCNS(=O)(=O)c2ccc(Cl)cc2)c1 [Compound 12, reference compound]",0.027,–,–
"CC1=C(OCC(C)C)CC(Cc2cccc(CCNS(=O)(=O)c3ccc(Cl)cc3)c2)C1=O (stereo not shown) [Compound 37, 4-Chloro-N-(3-((4-isobutoxy-3-methyl-2-oxocyclopent-3-en-1-yl)methyl)phenethyl)benzenesulfonamide]",1.79,–,–
"CCC1=C(OCC(C)C)CC(Cc2cccc(CCNS(=O)(=O)c3ccc(Cl)cc3)c2)C1=O (stereo not shown) [Compound 38, 4-Chloro-N-(3-((3-ethyl-4-isobutoxy-2-oxocyclopent-3-en-1-yl)methyl)phenethyl)-benzenesulfonamide]",0.463,3.8,–
"CC(C)COC1=C(C(C)C)C(=O)C(Cc2cccc(CCNS(=O)(=O)c3ccc(Cl)cc3)c2)C1 (stereo not shown) [Compound 39, 4-Chloro-N-(3-((4-isobutoxy-3-isopropyl-2-oxocyclopent-3-en-1-yl)methyl)phenethyl)benzenesulfonamide]",0.259,5.3,–
"CC(C)COC1=C(CC2CC2)C(=O)C(Cc2cccc(CCNS(=O)(=O)c3ccc(Cl)cc3)c2)C1 (stereo not shown) [Compound 40, 4-Chloro-N-(3-((3-(cyclopropylmethyl)-4-isobutoxy-2-oxocyclopent-3-en-1-yl)methyl)phenethyl)benzenesulfonamide]",2.52,21.9,–
"O=C1C=C(O)C(Cc2cccc(CCNS(=O)(=O)c3ccc(Cl)cc3)c2)C1 (stereo not shown) [Compound 41, 4-Chloro-N-(3-((2-hydroxy-4-oxocyclopent-2-en-1-yl)methyl)phenethyl)benzenesulfonamide]",0.052,0.25,–
"CC1=C(O)C(Cc2cccc(CCNS(=O)(=O)c3ccc(Cl)cc3)c2)CC1=O (stereo not shown) [Compound 42, 4-Chloro-N-(3-((2-hydroxy-3-methyl-4-oxocyclopent-2-en-1-yl)methyl)phenethyl)-benzenesulfonamide]",0.0031,0.131,–
"CCC1=C(O)CC(Cc2cccc(CCNS(=O)(=O)c3ccc(Cl)cc3)c2)C1=O (stereo not shown) [Compound 43, 4-Chloro-N-(3-((3-ethyl-4-hydroxy-2-oxocyclopent-3-en-1-yl)methyl)phenethyl)-benzenesulfonamide]",0.0094,0.171,–
"CC(C)C1=C(O)CC(Cc2cccc(CCNS(=O)(=O)c3ccc(Cl)cc3)c2)C1=O (stereo not shown) [Compound 44, 4-Chloro-N-(3-((4-hydroxy-3-isopropyl-2-oxocyclopent-3-en-1-yl)methyl)phenethyl)benzenesulfonamide]",0.018,0.198,–
"O=C1C(CC2CC2)=C(O)CC1Cc1cccc(CCNS(=O)(=O)c2ccc(Cl)cc2)c1 (stereo not shown) [Compound 45, 4-Chloro-N-(3-((3-(cyclopropylmethyl)-4-hydroxy-2-oxocyclopent-3-en-1-yl)methyl)phenethyl)benzenesulfonamide]",–,0.041,0.0058
"O=C1CCC(O)=C1Cc1cccc(CCNS(=O)(=O)c2ccc(Cl)cc2)c1 [Compound 50, 4-Chloro-N-(3-((2-hydroxy-5-oxocyclopent-1-en-1-yl)methyl)phenethyl)benzenesulfonamide]",–,–,> 10
"O=C1CCC(O)=C1CCc1cccc(CCNS(=O)(=O)c2ccc(Cl)cc2)c1 [Compound 58, 4-Chloro-N-(3-(2-(2-hydroxy-5-oxocyclopent-1-en-1-yl)ethyl)phenethyl)-benzenesulfonamide]",1.23,–,–
"O=C1C(C2CCCCC2)=C(O)CC1Cc1cccc(CCNS(=O)(=O)c2ccc(Cl)cc2)c1 (stereo not shown) [Compound 51499, 4-Chloro-N-(3-((3-cyclohexyl-4-hydroxy-2-oxocyclopent-3-en-1-yl)methyl)phenethyl)benzenesulfonamide]",–,0.058,0.0056
"O=C1C=C(O)CC(c2cccc(CCNS(=O)(=O)c3ccc(Cl)cc3)c2)C1 (stereo not shown) [Compound 51523, 4-Chloro-N-(2-(5′-hydroxy-3′-oxo-1′,2′,3′,6′-tetrahydro-[1,1′-biphenyl]-3-yl)ethyl)benzenesulfonamide]",–,0.4,0.2
"O=C1CCC(Cc2cccc(CCNS(=O)(=O)c3ccc(Cl)cc3)c2)=C1O [Compound 51525, 4-Chloro-N-(3-((2-hydroxy-3-oxocyclopent-1-en-1-yl)methyl)phenethyl)benzenesulfonamide]",–,0.05,–
